{"source": "patent US20150150893A1", "about": "“ANDROGRAPHOLIDE ANALOGS AND THEIR USE FOR MEDICATION” (LIAONING LIFENG SCIENTIFIC & TECHNOLOGY DEVELOPMENT COMPANY …, priority 2012, published 2015)", "system": "S180 sarcoma", "parameters": "species or system Kunming mice", "conditions": "mouse, in vivo, iv", "data": [{"smiles": "C=C1CCC2C(C)(CO)C(O)CCC2(C)C1CC(NC12CN3CN(CN(C3)C1)C2)C1=CCOC1=O", "note": "(stereo not drawn) [Example 57, 12-((1s,3s,5s)-1,3,5-triazaadamantan-7-ylamino)-14-deoxyandrographolide]", "values": [{"measurement": "anti-tumor efficacy", "value": "statistically significant"}]}, {"smiles": "C=C1C(NC(C)C(=O)NC2=NCC=N2)CC2[C@](C)(CC[C@@H](O)[C@@]2(C)CO)C1/C=C/C1=CC(=C\\c2ccc(N(C)C)cc2)/OC1=O", "note": "(stereo partly drawn) [Example 188]", "values": [{"measurement": "anti-tumor efficacy", "value": "statistically significant"}]}, {"smiles": "CN1CCN(c2ccc(/C=C3C=C(/C=C/C4C5(CCC6[C@]4(C)CC[C@@H](O)[C@@]6(C)CO)CO5)C(=O)O\\3)cc2)CC1", "note": "(stereo partly drawn) [Example 71, 11,12-dedihydro-14-deoxy-(E)-15-(4-(4-methylpiperazin-1-yl)benzylidene)-8,17-epoxyandrographolide]", "values": [{"measurement": "anti-tumor efficacy", "value": "statistically significant"}]}]}
